Values of other authors in article PMC9537296 (Scientific Reports, 2022).

Conditions: in vivo; cited from earlier work

For Dasiglucagon, the T1/2 is listed as ~ 30 min.
